The values below are quoted from earlier work in PMC4269383.

This data set concerns the target Plexin-B1 RBD (Homo sapiens) (UniProt O43157).

For Rac1 (from UniProt P63000), the Kd (commonly the concentration at which binding is half-saturated) is 6 µM.
